Target: GABA-AT (Sus scrofa, UniProt P80147)
Test: Reversible inhibition of GABA-AT
Assay type: biochemical
Conditions: Ki = IC50/(1+[S]/Km)

The chains behind the UniProt entries cited, without tags or fusion partners. Residues count along the entry.
UniProt P80147, 29-500: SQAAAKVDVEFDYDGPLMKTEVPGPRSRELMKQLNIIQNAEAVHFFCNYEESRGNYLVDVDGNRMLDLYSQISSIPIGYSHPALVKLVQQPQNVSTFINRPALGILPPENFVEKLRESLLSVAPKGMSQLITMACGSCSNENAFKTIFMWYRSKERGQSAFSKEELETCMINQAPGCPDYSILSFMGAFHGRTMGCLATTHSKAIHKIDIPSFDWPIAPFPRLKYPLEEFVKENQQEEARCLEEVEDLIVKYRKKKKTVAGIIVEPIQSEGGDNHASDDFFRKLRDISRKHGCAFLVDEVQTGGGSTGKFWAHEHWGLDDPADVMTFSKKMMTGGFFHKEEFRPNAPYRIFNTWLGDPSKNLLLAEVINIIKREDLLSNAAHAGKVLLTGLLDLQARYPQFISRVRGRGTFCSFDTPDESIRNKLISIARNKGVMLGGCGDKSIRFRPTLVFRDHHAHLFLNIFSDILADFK

Q: How did the Ki turn out when `N[C@H]1C[C@@H](C(=O)O)CC1(F)F` [Compound 4, (1R,4S)-4-amino-3,3-difluorocyclopentanecarboxylic acid] was run?
A: 100 µM
